This is one part of the list.

Experimental findings from publication PMC7723054 are described below.

The labels stand for the following.
T1: LIN28A (human?, UniProt Q9H9Z2 1-209)
T1 sequence: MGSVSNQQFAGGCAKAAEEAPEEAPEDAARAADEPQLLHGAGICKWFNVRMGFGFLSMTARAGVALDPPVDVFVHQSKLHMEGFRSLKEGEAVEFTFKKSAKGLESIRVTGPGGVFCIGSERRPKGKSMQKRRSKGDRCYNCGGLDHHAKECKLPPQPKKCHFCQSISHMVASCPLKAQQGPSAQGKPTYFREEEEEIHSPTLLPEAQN

T2: CIRBP (Homo sapiens, UniProt Q14011 1-172)
T2 sequence: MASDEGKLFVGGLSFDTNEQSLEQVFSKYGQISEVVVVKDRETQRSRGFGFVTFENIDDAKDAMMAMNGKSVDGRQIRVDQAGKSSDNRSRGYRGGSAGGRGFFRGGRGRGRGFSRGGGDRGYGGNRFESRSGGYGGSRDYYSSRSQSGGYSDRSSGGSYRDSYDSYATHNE

T3: DHX36 (Homo sapiens, UniProt Q9H2U1 1-1008)
T3 sequence: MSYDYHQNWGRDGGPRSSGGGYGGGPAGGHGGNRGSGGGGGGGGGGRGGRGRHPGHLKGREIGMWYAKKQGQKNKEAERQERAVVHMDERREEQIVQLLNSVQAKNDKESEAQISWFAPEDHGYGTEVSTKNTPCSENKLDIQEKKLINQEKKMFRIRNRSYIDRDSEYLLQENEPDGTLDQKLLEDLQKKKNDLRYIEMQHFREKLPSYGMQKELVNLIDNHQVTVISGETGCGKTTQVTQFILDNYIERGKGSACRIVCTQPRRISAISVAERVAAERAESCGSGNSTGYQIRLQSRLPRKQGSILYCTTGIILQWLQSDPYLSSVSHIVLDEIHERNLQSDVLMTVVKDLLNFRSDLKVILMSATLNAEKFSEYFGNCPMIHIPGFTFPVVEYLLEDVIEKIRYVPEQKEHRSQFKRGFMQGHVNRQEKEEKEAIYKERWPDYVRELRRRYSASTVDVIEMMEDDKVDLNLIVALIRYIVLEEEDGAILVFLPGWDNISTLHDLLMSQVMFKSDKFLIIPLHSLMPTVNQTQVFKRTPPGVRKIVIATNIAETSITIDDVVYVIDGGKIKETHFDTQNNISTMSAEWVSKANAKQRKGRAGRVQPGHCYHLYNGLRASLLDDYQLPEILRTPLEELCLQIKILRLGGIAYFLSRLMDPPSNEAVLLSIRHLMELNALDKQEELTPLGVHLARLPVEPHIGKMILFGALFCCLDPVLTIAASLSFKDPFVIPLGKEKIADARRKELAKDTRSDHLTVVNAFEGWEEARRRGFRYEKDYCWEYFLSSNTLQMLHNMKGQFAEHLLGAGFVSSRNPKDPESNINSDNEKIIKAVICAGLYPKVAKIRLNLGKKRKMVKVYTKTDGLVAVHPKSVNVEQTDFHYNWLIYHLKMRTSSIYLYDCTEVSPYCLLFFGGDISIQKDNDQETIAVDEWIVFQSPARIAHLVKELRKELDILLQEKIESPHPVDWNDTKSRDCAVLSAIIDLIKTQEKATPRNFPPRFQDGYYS

B1: hsa-mir-3144 (structured_RNA)
RNA: GGGAAAAUUGGUCAACGUGGUGCCCUGUGGUGUACGAAGUUUCAGCAUAUAGAUAUCAGCUACCUAUAUGCUGAAGCUUCGUGCAC
B2: hsa-mir-8076 (structured_RNA)
RNA: GGGAAUGGCGCGAAUCCCCGAUACUCAUGGUGUACGAAGUUUCAGCUGUGAGAGCUACUAAGUCUUAUAGCUGAAGCUUCGUGCAC
B3: hsa-mir-381 (structured_RNA)
RNA: GGGAAUAGGCUUCUCCAGGCCCAAGAUAGGUGUACGAAGUUUCAGCUAUAUUCGGUUUAUUGACAUGGAAUAUAGCUGAAGCUUCGUGCAC
B4: hsa-mir-874 (structured_RNA)
RNA: GGGAAGAGCUAAGGGUAGAACGUAUCUUGGUGUACGAAGUUUCAGCGUAAGAGAGACUCUCGCUUCCUGCGCUGAAGCUUCGUGCAC
B5: hsa-mir-518a-2 (structured_RNA)
RNA: GGGAACGAAAUCAUAGGCGUAACACCCGGGUGUACGAAGUUUCAGCUUUCUGUUGUCUAAAAGAAGAGAAAGCUGAAGCUUCGUGCAC
B6: hsa-mir-186 (structured_RNA)
RNA: GGGAAAUAUUGUGCGCGCUAACGACAGUGGUGUACGAAGUUUCAGCGGGCUUUCUGGUUUUAUUUUAAGCCCGCUGAAGCUUCGUGCAC
B7: hsa-mir-506 (structured_RNA)
RNA: GGGACGUUCCGUGAUACACCUUUGAGAAGGUGUACGAAGUUUCAGCCUUAAUAGAUUAAUAUUUGUAAGGCUGAAGCUUCGUGCAC
B8: hsa-mir-3173 (structured_RNA)
RNA: GGGAAACUGGUUCUGGGAUGGUCAAUUCGGUGUACGAAGUUUCAGCCUUUGUGAUUUUAUGAGAACAAAGGCUGAAGCUUCGUGCAC
B9: hsa-mir-5047 (structured_RNA)
RNA: GGGAACAUCGAAAGGAACGAGUAGCAUUGGUGUACGAAGUUUCAGCGCAUAAAAACAACUUUUGGGGGACAGGUAUGUUUUCUUGCGCUGAAGCUUCGUGCAC
B10: hsa-mir-1299 (structured_RNA)
RNA: GGGACCACUCGGGGAAAGGACCUAUCCAGGUGUACGAAGUUUCAGCGGAAUCCUACGUGAGGGACAAUCAUUCAGACCCACGUAGCAGUGUUCUGCUGAAGCUUCGUGCAC
B11: hsa-mir-302f (structured_RNA)
RNA: GGGAGGAAGGUUAAAUGACGAUGCUCUUGGUGUACGAAGUUUCAGCAUUUUCACUUAAUGCUGAAGCUUCGUGCAC
B12: hsa-mir-3189 (structured_RNA)
RNA: GGGAAAGGCUUGUCGCUAACACCGUGUAGGUGUACGAAGUUUCAGCUGGGUAGGAAUAUCCUGGAUCCCCUGCUGAAGCUUCGUGCAC
B13: hsa-mir-5684 (structured_RNA)
RNA: GGGAAACAUCGGGACAAGCAAAGAUAAUGGUGUACGAAGUUUCAGCACAGAGUGAGAUGGUCUUGUUUUGUGCUGAAGCUUCGUGCAC
B14: hsa-mir-331 (structured_RNA)
RNA: GGGAGACGCGGAAUGACAUAUGAGUUUAGGUGUACGAAGUUUCAGCGGAUCCCAGAUCAAACCAGGCCCGCUGAAGCUUCGUGCAC
B15: hsa-mir-1302-1 (structured_RNA)
RNA: GGGAGAAGAAUGUAUAGACCAGCGAAACGGUGUACGAAGUUUCAGCCCAUACAAUAUUUGGGCUGAAGCUUCGUGCAC
B16: hsa-mir-4445 (structured_RNA)
RNA: GGGAAGAAUAUUUAGGCGAUUCCCCUGCGGUGUACGAAGUUUCAGCCGUGCAAGUUUAAGUUUUUGCACGGCUGAAGCUUCGUGCAC
B17: hsa-mir-8082 (structured_RNA)
RNA: GGGAAAGGUUGCCCAGCUAGUACCUCACGGUGUACGAAGUUUCAGCUCUGGGGAGAGAGUCCUCUUUUCAGCGCUGAAGCUUCGUGCAC
B18: hsa-mir-95 (structured_RNA)
RNA: GGGAAGCGUUAAUGGGGCUAUUGCGGGAGGUGUACGAAGUUUCAGCUGAAUUGAAAUGCGUUACAUUCAGCUGAAGCUUCGUGCAC
B19: hsa-mir-4654 (structured_RNA)
RNA: GGGAACCCAAUAUUGCUUGACGACACGAGGUGUACGAAGUUUCAGCCUGGGGUUGGAAUGUGACCCCAGCUGAAGCUUCGUGCAC
B20: hsa-mir-502 (structured_RNA)
RNA: GGGAAAGUAGUAUGACUGCCUCGCAGCUGGUGUACGAAGUUUCAGCGCUAGUGCUGGCUCAAUGCAAUGCGCUGAAGCUUCGUGCAC
B21: hsa-mir-7856 (structured_RNA)
RNA: GGGAACUUCACUGAGAGUAAGGUUAAGGGGUGUACGAAGUUUCAGCGAUCCUUUGUUCUGGAUCGCUGAAGCUUCGUGCAC
B22: hsa-mir-7153 (structured_RNA)
RNA: GGGACGAAAGUUAGCCAACCGCGUAACAGGUGUACGAAGUUUCAGCUAGGUGGUCGAAGUCAUCCACAGCUGAAGCUUCGUGCAC
B23: hsa-mir-4460 (structured_RNA)
RNA: GGGAAGUAUACAGAUGCGUACCUCUUGAGGUGUACGAAGUUUCAGCCCUUCUCCUCUUUGCAGUGAUAAAGGAGGGCUGAAGCUUCGUGCAC
B24: hsa-mir-302c (structured_RNA)
RNA: GGGAACGUGGUUUGCUCCCAGGUCUACGGGUGUACGAAGUUUCAGCCCUGCUGUGUGAAACAAAAGUAAGGCUGAAGCUUCGUGCAC
B25: hsa-mir-3191 (structured_RNA)
RNA: GGGAAUGCAAUGGCGACACCCUGGUAAUGGUGUACGAAGUUUCAGCUCCACACUGACAAGGGCCGUGGGGGCUGAAGCUUCGUGCAC
B26: hsa-mir-135a-2 (structured_RNA)
RNA: GGGAAGUGCGACGUUCUUUGGUGUGUUCGGUGUACGAAGUUUCAGCGUGAUAGUAAUAAAGUCUCAUGCUGAAGCUUCGUGCAC

The target of the first assay is T1, LIN28A. As to the kind of experiment: FOREST: bead pull-down of RNA structure library v1, barcode microarray; U1A/LIN28A: 20 mM HEPES pH 7.5, 80 mM KCl, 20 mM NaCl, 10% glycerol, 2 mM DTT, 0.1 ug/uL BSA, 4 C; BG4/CIRBP/DHX36: 10 mM Tris-HCl pH 7.5, 100 mM KCl (or LiCl),; high values mean tight binding.
Turning to B1, the binding signal amounted to 0.497 z-score.
In turn, B2 had a binding signal of 0.486 z-score.
As to B3, the binding signal was determined as 0.491 z-score.
B4: the binding signal was determined as 0.475 z-score.
For B5, the binding signal stood at 0.476 z-score.
On to B6, for which the binding signal is 0.464 z-score.
In the case of B7, the binding signal was determined as 0.466 z-score.
B8: the binding signal was 0.511 z-score.
In the case of B9, the binding signal came to 0.512 z-score.
The molecule B10 came in with a binding signal of 0.54 z-score.
On the same count and under the same terms, then B11, with 0.479 z-score; and B12, with 0.462 z-score; and B13, with 0.521 z-score.
Take B14: the binding signal came to 0.558 z-score.
On to B15, for which the binding signal turned out to be 0.477 z-score.
B16 showed a binding signal of 0.523 z-score.
In turn, B17 registered a binding signal of 0.5 z-score.
As for B18, the binding signal was 0.474 z-score.
In turn, B19 yielded a binding signal of 0.523 z-score.
The same measure, in the same setting: then B20, with 0.504 z-score; and B21, with 0.486 z-score; and B22, with 0.468 z-score.
The same measure, in the same setting: then B23, with 0.483 z-score; and B24, with 0.465 z-score; and B25, with 0.547 z-score.
In the case of B26, the binding signal is 0.54 z-score.

Another assay concerns the target T2, CIRBP. The description is as above.
In the case of B1, the binding signal came out at 0.898 z-score.
On the same count and under the same terms, then B2, with -0.312 z-score.
Consider B3, for which the binding signal is 0.278 z-score.
In turn, B4 displayed a binding signal of 1.53 z-score.
The molecule B5 had a binding signal of 0.138 z-score.
B6: the binding signal is 0.616 z-score.
In turn, B7 registered a binding signal of -0.269 z-score.
B8: the binding signal came to 0.397 z-score.
Take B9: the binding signal amounted to 0.488 z-score.
Take B10: the binding signal is 0.414 z-score.
Turning to B11, the binding signal is 1.52 z-score.
As to B12, the binding signal was determined as 0.681 z-score.
In the case of B13, the binding signal came out at 0.903 z-score.
Take B14: the binding signal came to 0.974 z-score.
The same measure, in the same setting: then B15, with -0.283 z-score.
As for B16, the binding signal was 0.217 z-score.
Consider B17, for which the binding signal worked out at 0.0866 z-score.
In turn, B18 had a binding signal of 0.824 z-score.
The molecule B19 yielded a binding signal of -0.185 z-score.
As for B20, the binding signal is 1.11 z-score.
Regarding B21, the binding signal amounted to 0.827 z-score.
Regarding B22, the binding signal stood at 0.708 z-score.
Regarding B23, the binding signal is -0.149 z-score.
As to B24, the binding signal was -0.0262 z-score.
B25 displayed a binding signal of 0.819 z-score.
On the same count and under the same terms, next, B26: 0.198 z-score.

In the next assay the target is T3, DHX36. The description is as above.
On to B1, for which the binding signal is -0.501 z-score.
On to B2, for which the binding signal is -0.996 z-score.
B3 yielded a binding signal of 0.314 z-score.
On the same count and under the same terms, then B4, with 0.168 z-score; and B5, with 0.353 z-score; and B6, with -0.647 z-score.
Molecule B7 yielded a binding signal of -0.844 z-score.
In turn, B8 yielded a binding signal of -0.285 z-score.
For the molecule B9, the binding signal stood at 1.87 z-score.
B10 had a binding signal of 0.33 z-score.
The molecule B11 showed a binding signal of 1.6 z-score.
The molecule B12 registered a binding signal of 0.989 z-score.
The molecule B13 registered a binding signal of 0.269 z-score.
For B14, the binding signal was 0.729 z-score.
For the molecule B15, the binding signal was -0.713 z-score.
For B16, the binding signal was -0.444 z-score.
Molecule B17 came in with a binding signal of -0.0778 z-score.
In turn, B18 displayed a binding signal of -0.272 z-score.
The molecule B19 yielded a binding signal of -0.138 z-score.
On the same count and under the same terms, then B20, with 0.332 z-score; and B21, with 0.348 z-score; and B22, with 0.367 z-score.
With B23, the binding signal was -0.834 z-score.
For B24, the binding signal was -0.951 z-score.
Same read-out and setting: then B25, with -0.741 z-score; and B26, with -0.421 z-score.
